Experimental data taken from patent US20230364109A1, “GANAXOLONE FOR USE IN TREATMENT OF SUPER REFRACTORY STATUS EPILEPTICUS” (MARINUS PHARMACEUTICALS, INC., priority 2020, published 2023).

Tested on: benzodiazepine-resistant SE
Settings: experimental animals

CC(=O)[C@H]1CC[C@H]2[C@@H]3CC[C@H]4C[C@](C)(O)CC[C@]4(C)[C@H]3CC[C@]12C [ganaxolone, 3α-hydroxy-3β-methyl-5α-pregnan-20-one]
effect on benzodiazepine-resistant SE (convulsions, EEG seizure activity, survival): immediate and prolonged cessation of benzodiazepine-resistant SE
